# Measurements reported in EP3398599A1, “COMPOSITIONS AND METHODS FOR PROPHYLAXIS AND TREATMENT OF ADDICTIONS” (priority 2009, dated 2010).
# Columns and labels:
# human patients = test: Observational study of alcohol abuse in human patients (pioglitazone 30 mg/day or naltrexone 50 mg/day + psychotherapy); assay type: in vivo
# heavy tobacco smokers = test: Pilot study in heavy tobacco smokers (pioglitazone 15-30 mg/daily, varenicline 0.5 to 2.0 mg/day, bupropione); assay type: in vivo, human
# [1] = Young, Buckle et al. 1998; Breidert, Callebert et al. 2002; cited from earlier work
smiles,measurement,setting,value
O=C1CC[C@@]2(O)[C@H]3Cc4ccc(O)c5c4[C@@]2(CCN3CC2CC2)[C@H]1O5 [naltrexone],Obsessive compulsive drinking scale (OCDS) (mean score values),human patients; T=0 (beginning of the treatment),49
same,Obsessive compulsive drinking scale (OCDS) (mean score values),"human patients; T=1.1 (month 1, week 1)",47
same,Obsessive compulsive drinking scale (OCDS) (mean score values),"human patients; T=1.2 (month 1, week 2)",45
CCc1ccc(CCOc2ccc(CC3SC(=O)NC3=O)cc2)nc1 (stereo not shown) [pioglitazone],Percent inhibition of smoking,"heavy tobacco smokers; Patient 1, T=2 weeks of treatment",27%
same,Percent inhibition of smoking,"heavy tobacco smokers; Patient 1, T=4 weeks of treatment",49%
same,Percent inhibition of smoking,"heavy tobacco smokers; Patient 1, T=6 weeks of treatment",57%
same,Percent inhibition of smoking,"heavy tobacco smokers; Patient 1, T=8 weeks of treatment",72%
same,Percent inhibition of smoking,"heavy tobacco smokers; Patient 2, T=2 weeks of treatment",24%
same,Percent inhibition of smoking,"heavy tobacco smokers; Patient 2, T=4 weeks of treatment",39%
same,Percent inhibition of smoking,"heavy tobacco smokers; Patient 2, T=6 weeks of treatment",46%
same,Percent inhibition of smoking,"heavy tobacco smokers; Patient 2, T=8 weeks of treatment",68%
same,Percent inhibition of smoking,"heavy tobacco smokers; Patient 2, T=10 weeks of treatment",75%
same,Percent inhibition of smoking,"heavy tobacco smokers; Patient 3, T=2 weeks of treatment",25%
same,Percent inhibition of smoking,"heavy tobacco smokers; Patient 3, T=4 weeks of treatment",44%
same,Percent inhibition of smoking,"heavy tobacco smokers; Patient 3, T=6 weeks of treatment",66%
same,Percent inhibition of smoking,"heavy tobacco smokers; Patient 3, T=8 weeks of treatment",84%
same,Percent inhibition of smoking,"heavy tobacco smokers; Patient 4, T=2 weeks of treatment",23%
same,Percent inhibition of smoking,"heavy tobacco smokers; Patient 4, T=4 weeks of treatment",41%
same,Percent inhibition of smoking,"heavy tobacco smokers; Patient 4, T=6 weeks of treatment",53%
same,Percent inhibition of smoking,"heavy tobacco smokers; Patient 4, T=8 weeks of treatment",67%
same,reduction of smoking,heavy tobacco smokers; one (the fourth) pioglitazone patient,75%
same,"crossing of the blood brain barrier, compared with rosiglitazone",[1],crosses the blood brain barrier more easily
